The text below walks through data of ChEMBL document CHEMBL4831544, “Discovery of IHMT-EZH2-115 as a Potent and Selective Enhancer of Zeste Homolog 2 (EZH2) Inhibitor for the Treatment of B-Cell Lymphomas” (J Med Chem, 2021).

By UniProt entry, the sequences of proteins in these tests, tags left out.
UniProt Q15910, whole entry Y641F: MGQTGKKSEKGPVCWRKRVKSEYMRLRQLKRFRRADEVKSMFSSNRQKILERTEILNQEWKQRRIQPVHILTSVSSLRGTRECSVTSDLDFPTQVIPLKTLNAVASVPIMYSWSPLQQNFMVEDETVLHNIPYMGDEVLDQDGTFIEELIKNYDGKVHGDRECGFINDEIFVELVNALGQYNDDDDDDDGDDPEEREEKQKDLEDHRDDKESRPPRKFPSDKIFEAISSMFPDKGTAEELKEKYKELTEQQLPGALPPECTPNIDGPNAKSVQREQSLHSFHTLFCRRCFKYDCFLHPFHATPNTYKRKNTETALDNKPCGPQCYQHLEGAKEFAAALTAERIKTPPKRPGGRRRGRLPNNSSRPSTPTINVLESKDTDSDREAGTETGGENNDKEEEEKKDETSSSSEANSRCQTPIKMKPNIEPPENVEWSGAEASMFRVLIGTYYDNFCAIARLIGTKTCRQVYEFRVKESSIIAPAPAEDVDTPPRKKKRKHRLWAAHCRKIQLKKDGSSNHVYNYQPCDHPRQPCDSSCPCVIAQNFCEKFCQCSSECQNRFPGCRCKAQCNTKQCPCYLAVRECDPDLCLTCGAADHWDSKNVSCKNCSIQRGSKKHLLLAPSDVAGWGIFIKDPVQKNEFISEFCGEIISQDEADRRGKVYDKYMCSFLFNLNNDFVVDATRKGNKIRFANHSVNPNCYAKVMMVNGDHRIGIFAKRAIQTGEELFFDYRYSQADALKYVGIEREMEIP

Where only a bound is given, the exact number is not on record here.

This assay concerns the target Histone-lysine N-methyltransferase EZH2 (Homo sapiens, UniProt Q15910, Y641F). Briefly: Inhibition of EZH2 Y641F mutant (unknown origin) using SAM as substrate incubated for 60 mins by luminescence microplate reader assay.
Broadly, the IC50 is the concentration that gives 50% inhibition. On to `CCN(C(=O)C1CC1)c1cc(-c2ccc(NC(=O)CCN(C)C)cc2)cc(C(=O)NCc2c(C)cc(C)[nH]c2=O)c1C`, for which the IC50 was determined as 34.9 nM.
As for `Cc1cc(C)c(CNC(=O)c2cc(-c3ccc(CN4CCOCC4)cc3)cc3c2CCN3C(=O)C2CC2)c(=O)[nH]1`, the figure is 5290 nM.
In the case of `CCN(C(=O)C1CC1)c1cc(-c2ccc(N3CCN(CC4CC4)CC3)nc2)cc(C(=O)NCc2c(C)cc(C)[nH]c2=O)c1C` it was 24.4 nM; in that of `Cc1cc(C)c(CNC(=O)c2cc(-c3ccc(CN4CCOCC4)cc3)cc3c2CCN3C(=O)C2CCOCC2)c(=O)[nH]1`, 6220 nM; in that of `CCN(C(=O)C1CC1)c1cc(-c2ccc(N)cc2)cc(C(=O)NCc2c(C)cc(C)[nH]c2=O)c1C`, 61.2 nM.
`CCN(C(=O)C1CC1)c1cc(-c2ccc(N3CCNCC3)cc2)cc(C(=O)NCc2c(C)cc(C)[nH]c2=O)c1C` showed a half-maximal inhibitory concentration (IC50) of 33.1 nM.
On to `Cc1cc(C)c(CNC(=O)c2cc(-c3ccc(CN4CCOCC4)cc3)cc3c2CCN3C(=O)c2ccco2)c(=O)[nH]1`, for which the IC50 was 6240 nM.
The compound `CCN(C(=O)C1CC1)c1cc(-c2ccc(N3CCN(CC4CC4)CC3)cc2)cc(C(=O)NCc2c(C)cc(C)[nH]c2=O)c1C` yielded an IC50 of 50.5 nM.
As for `CCN1CCN(c2ccc(-c3cc(C(=O)NCc4c(C)cc(C)[nH]c4=O)c(C)c(N(CC)C(=O)C4CC4)c3)cc2)CC1`, the figure is 40.7 nM; as for `CCN(C(=O)C1CC1)c1cc(-c2cnc(N3CCN(CC4CC4)CC3)c(C)c2)cc(C(=O)NCc2c(C)cc(C)[nH]c2=O)c1C`, 30.4 nM.
In turn, `CCN(C(=O)C1CC1)c1cc(-c2ccc(NC(=O)c3cccnc3)cc2)cc(C(=O)NCc2c(C)cc(C)[nH]c2=O)c1C` yielded a concentration for half-maximal inhibition (IC50) of 70.3 nM.
The compound `CCN(C(=O)C1CC1)c1cc(-c2ccc(NC(=O)C3CCOCC3)cc2)cc(C(=O)NCc2c(C)cc(C)[nH]c2=O)c1C` yielded a half-maximal inhibitory concentration (IC50) of 49.6 nM.
As for `CCN(C(=O)C1CC1)c1cc(-c2cnc(N3CCN(CC4CC4)CC3)cc2C)cc(C(=O)NCc2c(C)cc(C)[nH]c2=O)c1C`, the figure is 40.4 nM; as for `Cc1cc(C)c(CNC(=O)c2cc(-c3ccc(CN4CCOCC4)cc3)cc3c2CCN3C(=O)C2CCCC2)c(=O)[nH]1`, more than 10000 nM.
In the case of `CCN(C(=O)C1CC1)c1cc(-c2ccc(NC(=O)c3cccs3)cc2)cc(C(=O)NCc2c(C)cc(C)[nH]c2=O)c1C` it was 150 nM; in that of `CCN(C(=O)C1CC1)c1cc(-c2ccc(N3CCOCC3)cc2)cc(C(=O)NCc2c(C)cc(C)[nH]c2=O)c1C`, 79.1 nM.
